Source: patent US7309713B2, “Use of the non-opiate analgesic drug flupirtine for the treatment of overactive bladder and associated diseases including urge incontinence, urinary flow problems as a result of prostate hyperplasia and irritable bowel syndrome” (priority 2005, dated 2007)

How the values were obtained:
[1] = test system: volume-induced rhythmic urinary bladder contractions; assay: volume-induced rhythmic urinary bladder contractions in urethane anaesthetised rats (rat model of overactive bladder); format: in vivo, Sprague Dawley rat; conditions: for presence/absence of bladder contractions (block grade), individual animal: 55 min period, Table 4; for mean voiding frequency decreased by: decrease; for mean pressure peaks of the amplitude diminished/reduced by: reduction
Description: In the search for new drugs compounds are of interest which affect the central nervous system circuits involved in micturation as well as the peripheral nerves resulting in a decrease in the frequency of the voiding reflex without any effect on bladder contractility. […] The method utilises spontaneous, volume-induced contractions of the urinary bladder in anaesthetised rats and was developed and first described by Dray (J. Pharmacol. Meth. 13:157-165, 1985) to assess the central activity of substances with opioid properties on bladder function. As this model clearly mimics the interplay between smooth muscle function and neuronal control thereof, this model can be also used to predict drug effects in a different disease, i.e. irritable bowl syndrome (IBS).
Aim of the study: To characterise the effects of the analgesic flupirtine maleate on the bladder function we used the model volume-induced contractions of urinary bladder in urethane anaesthetised rats. […] The compounds at the dose range 0.1-10 mg/kg were intraduodenally administered to anaesthetised rats. The intraduodenal route was chosen to mimic the oral route and to avoid the use of solvents necessary for intravenous administration.
• Species: Sprague Dawley rat • Sex: Female • Body weight: 200-270 g • Breeder: Charles River, Sulzfeld • Food/Tap water: pellets, ssniff M/R15, ad libitum, Spezialdiäten GmbH, Soest/Wesffalen, FRG • Conditions in animal housing: Rats were kept conventionally in groups of 6 in macrolon cages No. 4. • Room temperature: 20-24° C. • Relative humidity: 40-70%, deviations from the maximum range caused during cleaning procedure are possible • Light/Dark rhythm: 12/12 h light/dark cycle, light on at 6:00 a.m.
The food was withdrawn 16 hours before intraduodenal drug administration. Tap water was available ad libitum.
Flupirtine maleate or oxybutynin hydrochloride were suspended in hydroxyethylcellulose (0.5%) in demineralised water. The substances were ground in a mortar with pistil. The suspensions were placed on a magnetic stirrer before and during dosing procedures. The substances were freshly prepared in the morning and applied intraduodenally in a volume of 0.4 ml/100 g body weight. Control rats received hydroxyethylcellulose (0.5%) i.d.
The filling material, consisting of small globules, was ground in a mortar with pistil. Thereafter the grounded material was suspended in hydroxyethylcellulose (0.5%) in demineralised water. The suspensions were placed on a magnetic stirrer before and during dosing procedures for 10 minutes. The suspensions were freshly prepared in the morning and applied intraduodenally in a volume of 0.4 ml/100 g body weight to rats. Control rats received the same amount of hydroxyethylcellulose (0.5%) i.d.
The continuous registration lasted 1 hr. […] The frequency was evaluated for 10 min before (baseline) and within the observation period in intervals of 10 minutes starting 5, 20, 35 and 50 min after drug administration. For intraduodenal dosing, drugs were administered via a duodenal polyethylene tube to animals in aqueous suspension of 0.5% hydroxyethylcellulose.

[2] = test system: mean arterial blood pressure; assay: mean arterial blood pressure recorded in the urethane anaesthetised rats of the bladder model; conditions: for mean BP, change in percent from base value (Δ %): group mean; for mean arterial blood pressure decreased by: decrease
[3] = 0.1 mg/kg i.d. single dose, group mean
[4] = 0.1 mg/kg i.d., individual animals, hydrochloride
[5] = 1.0 mg/kg i.d. single dose, group mean
[6] = 1.0 mg/kg i.d., individual animals, hydrochloride
[7] = 3.0 mg/kg i.d. single dose, group mean
[8] = 3.0 mg/kg i.d., individual animals
[9] = 3.0 mg/kg i.d., individual animals, hydrochloride
[10] = 10 mg/kg i.d. single dose, group mean
[11] = 10 mg/kg i.d., individual animals
[12] = 10 mg/kg i.d., individual animals, hydrochloride

## CNCC[C@H](Oc1cccc2ccccc12)c1cccs1.Cl [duloxetine hydrochloride, (+)-(S)-N-Methyl-N-[3-(naphthalen-1-yloxy)-3-(2-thienyl)propyl]amine hydrochloride]
[1]; 0.1 mg/kg i.d. single dose
  block X/n (animals with blockade of bladder contraction): 3/3
[1]; [3]
  amplitude, change in percent from base value (Δ %): +1.7%
  frequency Post (20-60 min), mean: 5.7-6.0 n/10 min
  frequency, change in percent from base value (Δ %): −47%
[1]; 0.1 mg/kg i.d. single dose, hydrochloride
  block, blockade duration (group, min-max): 2.5 to 5 min
[1]; 0.1 mg/kg i.d. single dose, listed as Duloxetine hydrochloride, hydrochloride
  block, blockade duration (group, min-max): 2 to 5 min
[1]; 0.1 mg/kg i.d.
  presence/absence of bladder contractions (block grade), individual animal: (+) (+ or (+) = contractions abolished during 5-10 min time period)
[1]; 0.1 mg/kg i.d., increase
  mean pressure peaks of the amplitude increased by: 1.7%
[1]; [4]
  decrease in frequency, individual animal: in frequency by 43%; also recorded: by 50%, onset of repetitive bursts; also recorded: mean frequency by 39%
  duration of block, individual animal: ≤ 5 min and ≤ 3 min and max. 2.5 min, initial short block and (2 min), afterwards decrease in
  number of episodes of block per animal: 2 and 4 and 3
[1]; 0.1 mg/kg i.d., individual animals, listed as Duloxetine hydrochloride, hydrochloride
  number of episodes of block per animal: 2-4
[1]; 0.1 mg/kg i.d., text, listed as Duloxetine hydrochloride, hydrochloride
  mean voiding frequency decreased by: 47%
[1]; 0.1 mg/kg i.d., text, listed as duloxetine, hydrochloride
  mean voiding frequency decreased by: about 47%
[1]; 1.0 mg/kg i.d. single dose
  block X/n (animals with blockade of bladder contraction): 3/3
  block, blockade duration (group, min-max): 2.5 to 10 min
[1]; [5]
  amplitude, change in percent from base value (Δ %): −5.4%
  frequency, change in percent from base value (Δ %): −60%
[1]; 1.0 mg/kg i.d.
  presence/absence of bladder contractions (block grade), individual animal: (+) (+ or (+) = contractions abolished during 5-10 min time period)
[1]; 1 mg/kg i.d.
  mean voiding frequency decreased by: 60%
  mean pressure peaks of the amplitude diminished/reduced by: 5.4%
[1]; 1.0 mg/kg i.d., individual animals
  decrease in the height of the amplitude, individual animal: remained unchanged
[1]; [6]
  decrease in frequency, individual animal: 70% and frequency by 55%, occurrence and mean frequency by 50% and mean frequency by 70%,
  duration of block, individual animal: 2.5 min and ≤ 10 min and 2 min and ≤ 7 min, marked decrease in
  number of episodes of block per animal: 1-6 and 3 and 5-6
[1]; 3.0 mg/kg i.d.
  animals with sporadic increase in the frequency of the voiding: 2/3
[1]; 3.0 mg/kg i.d. single dose
  block X/n (animals with blockade of bladder contraction): 3/3
  block, blockade duration (group, min-max): 5 to 28 min
[1]; [7]
  amplitude, change in percent from base value (Δ %): −14%
  frequency Post (20-60 min), mean: 9.0-9.5 n/10 min
  frequency, change in percent from base value (Δ %): +2.8%
[1]; 3.0 mg/kg i.d., hydrochloride
  presence/absence of bladder contractions (block grade), individual animal: (+) (+ or (+) = contractions abolished during 5-10 min time period); also recorded: ++ (++ = contractions abolished during 10-30 min time period)
[1]; 3 mg/kg i.d., increase
  mean frequency averaged over all animals increased by: 2.8%
[1]; [8]
  decrease in frequency, individual animal: mean frequency decreased by 15%
  increase in frequency, individual animal: mean frequency by 40%, slight
[1]; [9]
  decrease in the height of the amplitude, individual animal: remained unchanged; also recorded: amplitude by 24%, decrease in; also recorded: of the amplitude unchanged
  duration of block, individual animal: 5 min and ≤ 28 min and 7 to 8 min
  number of episodes of block per animal: 1-2 and 2
[1]; 3 mg/kg i.d.
  mean pressure peaks of the amplitude diminished/reduced by: 14%
[1]; 10 mg/kg i.d.
  animals with sporadic increase in the frequency of the voiding: 4/5
  mean voiding frequency decreased by: 4.8%
  mean pressure peaks of the amplitude diminished/reduced by: 3.4%
[1]; 10 mg/kg i.d. single dose
  block X/n (animals with blockade of bladder contraction): 4/5
  block, blockade duration (group, min-max): 2 to 10 min
[1]; [10]
  amplitude Post (30-60 min), mean: 20.4-26.0 mm Hg
  amplitude, change in percent from base value (Δ %): −3.4%
  frequency, change in percent from base value (Δ %): −4.8%
[1]; 10 mg/kg i.d., hydrochloride
  presence/absence of bladder contractions (block grade), individual animal: (+) (+ or (+) = contractions abolished during 5-10 min time period); also recorded: + (+ or (+) = contractions abolished during 5-10 min time period)
[1]; [11]
  decrease in frequency, individual animal: frequency by 11%, thereafter
  reduction in the amplitude, individual animal: in the amplitude by 5%
[1]; [12]
  duration of block, individual animal: 8 min and max. 2 min, during first 30 min and 7 min (2×) and ≤ 10 min and min, after initial block (6 min)
  increase in frequency, individual animal: 110%, after 35th min reduction and maximum by −50%, irregular and by 33% during 20-30th min
  number of episodes of block per animal: 3 (2×) and 2
[1]; 10 mg/kg i.d., individual animals, listed as duloxetine, hydrochloride
  increase in frequency, individual animal: 110%
[2]; 0.1 mg/kg i.d. single dose
  mean BP, change in percent from base value (Δ %): −15%
[2]; 0.1 mg/kg i.d.
  mean arterial blood pressure decreased by: 15%
[2]; 1.0 mg/kg i.d. single dose
  mean BP, change in percent from base value (Δ %): −1.8%
[2]; 1 mg/kg i.d.
  mean arterial blood pressure decreased by: 1.8%
[2]; 3.0 mg/kg i.d. single dose
  mean BP, change in percent from base value (Δ %): −11%
[2]; 3.0 mg/kg i.d., animal 221
  decrease in mean blood pressure, individual animal: mean blood pressure by 13%
[2]; 3 mg/kg i.d.
  mean arterial blood pressure decreased by: 11%
[2]; 10 mg/kg i.d. single dose
  mean BP, change in percent from base value (Δ %): +21%
[2]; 10 mg/kg i.d., increase
  mean arterial blood pressure increased by: 21%
[2]; 10 mg/kg i.d., one rat (animal 208)
  fall of mean blood pressure to: 0 mm Hg
[2]; 10 mg/kg i.d., one rat (animal 208), 60th min
  death of the animal: exitus

Where “and” joins values, the source holds several entries; their conditions need not be identical. Equal values may be shown once. Entries after “also recorded” stand apart in the source; their conditions may differ.
